Source: paper PMC10009755, “Discovery and Characterization of BAY-805, a Potent and Selective Inhibitor of Ubiquitin-Specific Protease USP21” (Journal of Medicinal Chemistry, 2023)
Entries after “also recorded” stand apart in the source; their conditions may differ.

Sequences of proteins named here, by UniProt entry; tags and fusion partners are left off. A change or cut given only in a name is not applied to a line headed by its entry. Residues count along the entry.
UniProt Q9Y243: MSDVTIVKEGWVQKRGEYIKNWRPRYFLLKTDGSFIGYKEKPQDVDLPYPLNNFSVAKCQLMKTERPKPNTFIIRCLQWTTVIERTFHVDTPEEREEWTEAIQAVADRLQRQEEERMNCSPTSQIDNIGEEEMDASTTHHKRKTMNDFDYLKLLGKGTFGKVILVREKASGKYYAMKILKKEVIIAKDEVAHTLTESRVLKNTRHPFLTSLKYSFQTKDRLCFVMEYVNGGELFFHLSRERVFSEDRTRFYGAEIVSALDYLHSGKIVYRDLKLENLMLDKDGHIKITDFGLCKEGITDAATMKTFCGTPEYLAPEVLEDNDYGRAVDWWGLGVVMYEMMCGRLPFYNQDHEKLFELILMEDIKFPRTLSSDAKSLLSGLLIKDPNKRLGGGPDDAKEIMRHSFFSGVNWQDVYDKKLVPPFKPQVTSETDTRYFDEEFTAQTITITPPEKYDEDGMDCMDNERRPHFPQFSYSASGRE
UniProt Q8TAC2: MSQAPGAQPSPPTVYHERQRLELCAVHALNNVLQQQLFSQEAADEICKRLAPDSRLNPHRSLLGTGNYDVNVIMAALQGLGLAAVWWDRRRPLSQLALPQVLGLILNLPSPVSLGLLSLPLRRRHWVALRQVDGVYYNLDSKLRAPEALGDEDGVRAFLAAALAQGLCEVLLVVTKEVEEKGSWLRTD
UniProt Q9H1R3: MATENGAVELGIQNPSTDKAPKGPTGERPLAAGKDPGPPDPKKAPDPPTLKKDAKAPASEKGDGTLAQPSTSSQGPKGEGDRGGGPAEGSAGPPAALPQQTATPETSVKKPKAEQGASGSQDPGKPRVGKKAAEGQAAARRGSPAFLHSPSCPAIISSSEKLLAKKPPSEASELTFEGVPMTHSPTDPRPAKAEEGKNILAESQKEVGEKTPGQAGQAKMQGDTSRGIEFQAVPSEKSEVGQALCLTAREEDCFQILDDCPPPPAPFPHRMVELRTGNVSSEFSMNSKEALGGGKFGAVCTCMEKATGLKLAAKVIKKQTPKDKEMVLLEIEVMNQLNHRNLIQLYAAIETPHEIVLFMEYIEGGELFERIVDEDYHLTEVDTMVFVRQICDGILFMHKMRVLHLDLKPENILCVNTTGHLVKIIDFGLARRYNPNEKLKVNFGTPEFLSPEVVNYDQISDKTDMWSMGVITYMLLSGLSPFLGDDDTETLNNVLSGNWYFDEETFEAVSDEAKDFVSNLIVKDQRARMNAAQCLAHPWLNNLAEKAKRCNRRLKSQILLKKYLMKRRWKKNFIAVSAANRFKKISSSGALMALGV
UniProt Q04759: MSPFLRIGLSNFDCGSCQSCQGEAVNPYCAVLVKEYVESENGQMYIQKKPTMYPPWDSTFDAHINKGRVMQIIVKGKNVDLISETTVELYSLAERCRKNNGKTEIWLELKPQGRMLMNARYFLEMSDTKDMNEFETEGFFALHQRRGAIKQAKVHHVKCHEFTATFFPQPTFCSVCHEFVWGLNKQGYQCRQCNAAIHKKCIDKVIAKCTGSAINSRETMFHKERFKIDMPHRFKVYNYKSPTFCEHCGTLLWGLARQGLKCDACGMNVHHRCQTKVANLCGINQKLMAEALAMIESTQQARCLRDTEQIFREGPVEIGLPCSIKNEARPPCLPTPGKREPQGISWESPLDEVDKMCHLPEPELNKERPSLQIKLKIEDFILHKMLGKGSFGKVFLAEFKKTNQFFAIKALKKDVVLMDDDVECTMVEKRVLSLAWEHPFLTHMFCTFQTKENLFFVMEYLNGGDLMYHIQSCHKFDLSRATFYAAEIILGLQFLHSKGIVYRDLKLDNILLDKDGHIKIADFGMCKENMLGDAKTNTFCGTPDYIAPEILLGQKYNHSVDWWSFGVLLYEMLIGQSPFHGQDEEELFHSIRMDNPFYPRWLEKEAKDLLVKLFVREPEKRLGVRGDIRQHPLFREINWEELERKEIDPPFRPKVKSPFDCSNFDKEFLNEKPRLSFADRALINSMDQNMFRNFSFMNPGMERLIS
UniProt Q13043: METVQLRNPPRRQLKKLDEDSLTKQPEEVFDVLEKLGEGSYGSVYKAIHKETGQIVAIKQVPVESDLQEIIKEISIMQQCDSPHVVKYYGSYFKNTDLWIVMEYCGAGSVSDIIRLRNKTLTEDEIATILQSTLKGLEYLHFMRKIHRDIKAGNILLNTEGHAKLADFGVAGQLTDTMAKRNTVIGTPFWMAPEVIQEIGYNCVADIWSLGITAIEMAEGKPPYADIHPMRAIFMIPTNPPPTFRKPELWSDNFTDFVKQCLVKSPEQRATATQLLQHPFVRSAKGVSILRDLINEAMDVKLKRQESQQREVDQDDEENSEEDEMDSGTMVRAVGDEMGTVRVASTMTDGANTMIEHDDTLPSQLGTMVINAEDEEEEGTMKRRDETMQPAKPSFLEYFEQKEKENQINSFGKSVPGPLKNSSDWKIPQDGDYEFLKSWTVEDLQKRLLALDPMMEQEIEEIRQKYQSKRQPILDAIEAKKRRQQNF
UniProt P06213, 28-1382: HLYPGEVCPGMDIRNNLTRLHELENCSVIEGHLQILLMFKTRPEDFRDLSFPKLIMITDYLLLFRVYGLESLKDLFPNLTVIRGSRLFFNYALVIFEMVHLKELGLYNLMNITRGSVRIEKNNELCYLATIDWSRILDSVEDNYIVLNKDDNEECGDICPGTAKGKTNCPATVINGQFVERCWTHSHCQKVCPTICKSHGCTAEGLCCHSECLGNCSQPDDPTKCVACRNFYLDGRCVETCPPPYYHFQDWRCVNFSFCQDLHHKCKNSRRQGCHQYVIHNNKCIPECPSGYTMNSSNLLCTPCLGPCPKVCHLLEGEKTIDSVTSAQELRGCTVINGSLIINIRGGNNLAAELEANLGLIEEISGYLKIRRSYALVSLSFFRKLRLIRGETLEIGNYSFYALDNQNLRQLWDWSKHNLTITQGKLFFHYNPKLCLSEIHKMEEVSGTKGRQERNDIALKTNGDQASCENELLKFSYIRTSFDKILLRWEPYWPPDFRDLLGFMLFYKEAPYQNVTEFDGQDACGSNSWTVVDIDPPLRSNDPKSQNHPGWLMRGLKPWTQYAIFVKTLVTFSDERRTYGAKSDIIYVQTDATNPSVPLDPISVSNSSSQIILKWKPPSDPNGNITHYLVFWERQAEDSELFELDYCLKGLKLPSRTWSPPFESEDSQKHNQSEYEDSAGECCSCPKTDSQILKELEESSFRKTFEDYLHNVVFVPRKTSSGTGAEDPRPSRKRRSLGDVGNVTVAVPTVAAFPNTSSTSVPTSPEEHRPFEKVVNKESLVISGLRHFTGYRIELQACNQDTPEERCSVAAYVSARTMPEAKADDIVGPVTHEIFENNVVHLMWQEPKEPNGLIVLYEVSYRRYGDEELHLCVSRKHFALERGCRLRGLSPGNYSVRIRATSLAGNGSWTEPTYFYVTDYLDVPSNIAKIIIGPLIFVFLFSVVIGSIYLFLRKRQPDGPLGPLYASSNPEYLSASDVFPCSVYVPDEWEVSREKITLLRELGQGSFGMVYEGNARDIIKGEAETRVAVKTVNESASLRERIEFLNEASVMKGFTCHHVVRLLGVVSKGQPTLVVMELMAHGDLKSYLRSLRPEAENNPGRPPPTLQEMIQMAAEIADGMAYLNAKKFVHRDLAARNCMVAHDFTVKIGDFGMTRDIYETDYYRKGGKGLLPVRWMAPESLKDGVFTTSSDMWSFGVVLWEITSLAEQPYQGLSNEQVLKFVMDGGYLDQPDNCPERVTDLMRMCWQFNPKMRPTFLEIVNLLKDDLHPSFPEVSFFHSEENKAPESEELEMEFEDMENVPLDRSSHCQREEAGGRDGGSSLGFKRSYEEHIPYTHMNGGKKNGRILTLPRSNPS
UniProt Q00537: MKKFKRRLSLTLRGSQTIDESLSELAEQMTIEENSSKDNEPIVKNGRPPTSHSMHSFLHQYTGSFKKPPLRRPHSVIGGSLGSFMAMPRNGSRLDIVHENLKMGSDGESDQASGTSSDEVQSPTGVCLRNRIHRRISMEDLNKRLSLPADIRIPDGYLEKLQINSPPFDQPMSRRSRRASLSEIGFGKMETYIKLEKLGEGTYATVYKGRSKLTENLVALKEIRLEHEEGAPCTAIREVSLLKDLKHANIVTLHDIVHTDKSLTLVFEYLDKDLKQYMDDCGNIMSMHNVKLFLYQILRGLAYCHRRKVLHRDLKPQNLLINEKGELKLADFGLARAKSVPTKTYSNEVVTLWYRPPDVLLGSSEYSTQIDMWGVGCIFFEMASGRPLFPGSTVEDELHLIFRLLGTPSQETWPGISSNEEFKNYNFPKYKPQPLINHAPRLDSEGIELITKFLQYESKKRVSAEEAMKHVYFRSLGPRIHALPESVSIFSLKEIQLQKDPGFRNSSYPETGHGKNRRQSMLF
UniProt P41240: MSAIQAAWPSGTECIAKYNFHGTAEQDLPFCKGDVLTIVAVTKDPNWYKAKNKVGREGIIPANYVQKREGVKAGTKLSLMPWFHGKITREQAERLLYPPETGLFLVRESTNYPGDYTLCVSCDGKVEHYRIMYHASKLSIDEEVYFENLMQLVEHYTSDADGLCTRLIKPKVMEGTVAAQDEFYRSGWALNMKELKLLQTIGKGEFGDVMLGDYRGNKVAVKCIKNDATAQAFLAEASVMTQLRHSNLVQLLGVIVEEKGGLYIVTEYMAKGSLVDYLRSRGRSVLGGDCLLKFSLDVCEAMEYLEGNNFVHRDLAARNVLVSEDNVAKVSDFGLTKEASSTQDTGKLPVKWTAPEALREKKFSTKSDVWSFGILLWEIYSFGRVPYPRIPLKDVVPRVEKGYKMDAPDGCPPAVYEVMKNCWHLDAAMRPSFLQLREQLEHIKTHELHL
UniProt P27338, whole entry: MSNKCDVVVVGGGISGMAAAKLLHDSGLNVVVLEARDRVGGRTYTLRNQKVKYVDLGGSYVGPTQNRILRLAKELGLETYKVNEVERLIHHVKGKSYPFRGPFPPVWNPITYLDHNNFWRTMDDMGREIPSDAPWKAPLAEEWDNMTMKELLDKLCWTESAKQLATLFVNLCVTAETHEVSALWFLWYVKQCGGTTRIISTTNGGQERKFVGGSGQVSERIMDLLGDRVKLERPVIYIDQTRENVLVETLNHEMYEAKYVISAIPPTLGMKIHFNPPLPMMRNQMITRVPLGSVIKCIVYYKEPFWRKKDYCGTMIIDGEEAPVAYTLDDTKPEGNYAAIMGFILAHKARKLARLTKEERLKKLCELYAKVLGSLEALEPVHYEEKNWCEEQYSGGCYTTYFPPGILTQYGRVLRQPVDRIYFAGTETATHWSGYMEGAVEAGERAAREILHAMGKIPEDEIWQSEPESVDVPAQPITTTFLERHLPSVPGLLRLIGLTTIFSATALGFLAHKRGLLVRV
UniProt P51817: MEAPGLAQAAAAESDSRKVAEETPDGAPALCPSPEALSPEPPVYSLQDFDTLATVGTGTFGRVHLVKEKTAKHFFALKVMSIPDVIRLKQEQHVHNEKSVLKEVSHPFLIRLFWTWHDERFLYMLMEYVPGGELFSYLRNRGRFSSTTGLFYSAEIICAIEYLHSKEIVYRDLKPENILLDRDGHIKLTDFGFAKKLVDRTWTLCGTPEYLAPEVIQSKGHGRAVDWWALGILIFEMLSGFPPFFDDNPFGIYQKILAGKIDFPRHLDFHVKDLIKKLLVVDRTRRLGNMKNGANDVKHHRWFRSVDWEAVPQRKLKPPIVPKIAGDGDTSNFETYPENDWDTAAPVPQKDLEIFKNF

Key:
CK1alpha(h) = CK1alpha(h) (Homo sapiens, UniProt P48729); test: biochemical
PKBgamma(h) = PKBgamma(h) (Homo sapiens, UniProt Q9Y243); test: biochemical
MST3(h) = MST3(h) (Homo sapiens, UniProt Q9Y6E0); test: biochemical
JOSD2 = JOSD2 (Homo sapiens, UniProt Q8TAC2); test: biochemical; settings: read-out: Activity (% Control)
MYLK2(h) = MYLK2(h) (Homo sapiens, UniProt Q9H1R3); test: biochemical
EphA8(h) = EphA8(h) (Homo sapiens, UniProt P29322); test: biochemical
[1] = system: ATPase, Na+/K+, Heart, Pig; settings: 10 µM
Aldose Reductase = Aldose Reductase (Homo sapiens, UniProt P15121); test: biochemical; settings: read-out: % Inh.
HIPK2(h) = HIPK2(h) (Homo sapiens, UniProt Q9H2X6); test: biochemical
PKCtheta(h) = PKCtheta(h) (Homo sapiens, UniProt Q04759); test: biochemical
DAPK2(h) = DAPK2(h) (Homo sapiens, UniProt Q9UIK4); test: biochemical
MST1(h) = MST1(h) (Homo sapiens, UniProt Q13043); test: biochemical
[2] = molecular target: Nitric Oxide Synthase, Neuronal (nNOS) (Homo sapiens, UniProt P29475); test: biochemical; settings: read-out: % Inh.
NF-κB activation = test: NF-κB reporter assay; format: cell-based
Rsk1(h) = Rsk1(h) (Homo sapiens, UniProt Q15418); test: biochemical
CK1epsilon(h) = CK1epsilon(h) (Homo sapiens, UniProt P49674); test: biochemical
IR(h), activated = IR(h), activated (Homo sapiens, UniProt P06213); test: biochemical
mTOR(h) = mTOR(h) (Homo sapiens, UniProt P42345); test: biochemical
CDK17/cyclinY(h) = CDK17/cyclinY(h) (Homo sapiens, UniProt Q00537); test: biochemical
PAK2(h) = PAK2(h) (Homo sapiens, UniProt Q13177); test: biochemical
CSK(h) = CSK(h) (Homo sapiens, UniProt P41240); test: biochemical
CDK7/cyclinH/MAT1(h) = CDK7/cyclinH/MAT1(h) (Homo sapiens, UniProt P50613); test: biochemical
PKCalpha(h) = PKCalpha(h) (Homo sapiens, UniProt P17252); test: biochemical
Monoamine Oxidase MAO-B = Monoamine Oxidase MAO-B (Homo sapiens, UniProt P27338); test: biochemical; settings: read-out: % Inh.
eEF-2K(h) = eEF-2K(h) (Homo sapiens, UniProt O00418); test: biochemical
Ros(h) = Ros(h) (Homo sapiens, UniProt P08922); test: biochemical
Aurora-A(h) = Aurora-A(h) (Homo sapiens, UniProt O14965); test: biochemical
USP28 = USP28 (Homo sapiens, UniProt Q96RU2); test: biochemical; settings: read-out: Activity (% Control)
p70S6K(h) = p70S6K(h) (Homo sapiens, UniProt P23443); test: biochemical
MAP4K4(h) = MAP4K4(h) (Homo sapiens, UniProt O95819); test: biochemical
PKBbeta(h) = PKBbeta(h) (Homo sapiens, UniProt P31751); test: biochemical
SAPK3(h) = SAPK3(h) (Homo sapiens, UniProt P53778); test: biochemical
Adenosine A3 = Adenosine A3 (Homo sapiens, UniProt P0DMS8); test: biochemical; settings: read-out: % Inh.
IGF-1R(h) = IGF-1R(h) (Homo sapiens, UniProt P08069); test: biochemical
NIM1(h) = NIM1(h) (Homo sapiens, UniProt Q8IY84); test: biochemical
PDHK2(h) = PDHK2(h) (Homo sapiens, UniProt Q15119); test: biochemical
USP17 = USP17 (Homo sapiens, UniProt Q6R6M4); test: biochemical; settings: read-out: Activity (% Control)
SIK(h) = SIK(h) (Homo sapiens, UniProt P57059); test: biochemical
USP2 = USP2 (Homo sapiens, UniProt O75604); test: biochemical; settings: read-out: Activity (% Control)
JOSD1 = JOSD1 (Homo sapiens, UniProt Q15040); test: biochemical; settings: read-out: Activity (% Control)
PrKX(h) = PrKX(h) (Homo sapiens, UniProt P51817); test: biochemical

CC(C)C[C@H](NC(=O)C1(C(F)(F)F)CCCCC1)C(=O)Nc1nnc(Cc2ccc(C#N)cc2)s1 [Compound 22, CC(C)C[C@H](NC(=O)C1(CCCCC1)C(F)(F)F)C(=O)Nc2nnc(Cc3ccc(cc3)C#N)s2]
inhibition at 10 µM (CK1alpha(h)): 5.47% | inhibition at 10 µM (PKBgamma(h)): -0.27% | inhibition at 10 µM (MST3(h)): 4.23% | remaining activity at 1 µM (JOSD2): 98% | remaining activity at 10 µM (JOSD2): 110% | inhibition at 10 µM (MYLK2(h)): 2.95% | inhibition at 10 µM (EphA8(h)): -0.72% | % Inh. [1]: -3% | inhibition at 10 µM (Aldose Reductase): 2% | inhibition at 10 µM (HIPK2(h)): 0.7% | inhibition at 10 µM (PKCtheta(h)): -8.12% | inhibition at 10 µM (DAPK2(h)): 25.2% | inhibition at 10 µM (MST1(h)): -4.69% | inhibition at 10 µM [2]: -5% | NF-κB activation (in words) (NF-κB activation): mildly increased cellular NF-κB levels at 10 μM; also recorded: did not show substantial cellular activity | inhibition at 10 µM (Rsk1(h)): -1.98% | inhibition at 10 µM (CK1epsilon(h)): 3.02% | inhibition at 10 µM (IR(h), activated): -1.5% | inhibition at 10 µM (mTOR(h)): -5.19% | inhibition at 10 µM (CDK17/cyclinY(h)): 6.25% | inhibition at 10 µM (PAK2(h)): 0.75% | inhibition at 10 µM (CSK(h)): -17.2% | inhibition at 10 µM (CDK7/cyclinH/MAT1(h)): -2.13% | inhibition at 10 µM (PKCalpha(h)): 5.89% | inhibition at 10 µM (Monoamine Oxidase MAO-B): 5% | inhibition at 10 µM (eEF-2K(h)): 1.23% | inhibition at 10 µM (Ros(h)): 2.33% | inhibition at 10 µM (Aurora-A(h)): 21.1% | remaining activity at 1 µM (USP28): 99% | remaining activity at 10 µM (USP28): 106% | inhibition at 10 µM (p70S6K(h)): -3.21% | inhibition at 10 µM (MAP4K4(h)): 8.87% | inhibition at 10 µM (PKBbeta(h)): 9.96% | inhibition at 10 µM (SAPK3(h)): -2.05% | inhibition at 10 µM (Adenosine A3): 24% | inhibition at 10 µM (IGF-1R(h)): -24.4% | inhibition at 10 µM (NIM1(h)): 1.06% | inhibition at 10 µM (PDHK2(h)): 4.73% | remaining activity at 1 µM (USP17): 90% | remaining activity at 10 µM (USP17): 88% | inhibition at 10 µM (SIK(h)): 6.07% | remaining activity at 10 µM (USP2): 79% | remaining activity at 50 µM (USP2): 60% | remaining activity at 1 µM (JOSD1): 100% | remaining activity at 10 µM (JOSD1): 99% | inhibition at 10 µM (PrKX(h)): 10.4%

CC(C)C[C@@H](NC(=O)C1(C(F)(F)F)CCCCC1)C(=O)Nc1nnc(Cc2ccc(C#N)cc2)s1 [Compound 21, N-[(1R)-1-[[5-[(4-Cyanophenyl)methyl]-1,3,4-thiadiazol-2-yl]carbamoyl]-3-methyl-butyl]-1-(trifluoromethyl)cyclohexanecarboxamide]
inhibition at 10 µM (CK1alpha(h)): 7.91% | inhibition at 10 µM (PKBgamma(h)): -0.64% | inhibition at 10 µM (MST3(h)): 5.19% | remaining activity at 1 µM (JOSD2): 113% | remaining activity at 10 µM (JOSD2): 113% | inhibition at 10 µM (MYLK2(h)): 4.38% | inhibition at 10 µM (EphA8(h)): 1.36% | % Inh. [1]: -1% | inhibition at 10 µM (Aldose Reductase): 0% | inhibition at 10 µM (HIPK2(h)): 11.5% | inhibition at 10 µM (PKCtheta(h)): -12.6% | inhibition at 10 µM (DAPK2(h)): 1.79% | inhibition at 10 µM (MST1(h)): -6.64% | inhibition at 10 µM [2]: -15% | EC50 (NF-κB activation; Homo sapiens, HEK-293T, read-out: NF-κB activation EC50): 17 nM | inhibition at 10 µM (Rsk1(h)): -5.69% | inhibition at 10 µM (CK1epsilon(h)): 9.53% | inhibition at 10 µM (IR(h), activated): 12.9% | inhibition at 10 µM (mTOR(h)): 0.96% | inhibition at 10 µM (CDK17/cyclinY(h)): 9.31% | inhibition at 10 µM (PAK2(h)): 2.68% | inhibition at 10 µM (CSK(h)): -13.9% | inhibition at 10 µM (CDK7/cyclinH/MAT1(h)): 4.08% | inhibition at 10 µM (PKCalpha(h)): -0.68% | inhibition at 10 µM (Monoamine Oxidase MAO-B): 7% | inhibition at 10 µM (eEF-2K(h)): -5.77% | inhibition at 10 µM (Ros(h)): 0.5% | inhibition at 10 µM (Aurora-A(h)): 21.2% | remaining activity at 1 µM (USP28): 123% | remaining activity at 10 µM (USP28): 102% | inhibition at 10 µM (p70S6K(h)): 2.52% | inhibition at 10 µM (MAP4K4(h)): 8.2% | inhibition at 10 µM (PKBbeta(h)): 6.13% | inhibition at 10 µM (SAPK3(h)): 4.27% | inhibition at 10 µM (Adenosine A3): 12% | inhibition at 10 µM (IGF-1R(h)): -23.6% | inhibition at 10 µM (NIM1(h)): 2.28% | inhibition at 10 µM (PDHK2(h)): 10.3% | remaining activity at 1 µM (USP17): 93% | remaining activity at 10 µM (USP17): 97% | inhibition at 10 µM (SIK(h)): 9.31% | remaining activity at 10 µM (USP2): 79% | remaining activity at 50 µM (USP2): 73% | remaining activity at 1 µM (JOSD1): 108% | remaining activity at 10 µM (JOSD1): 101% | inhibition at 10 µM (PrKX(h)): 22.6%
